FRET efficiency (cytosol) and FRET efficiency (peripheral) data for 1 substance are collected here from article PMC2651628.

The test addresses YFP-hMena (human Mena fused to monomeric Venus) (human) (UniProt Q8N8S7). Nature of the test: FRET or BRET; u-adFRET (acceptor-depletion FRET with linear spectral unmixing) in U251MG cells co-transfected with YFP (Venus) acceptor and CFP donor fusions, fixed in 4% paraformaldehyde; FRET efficiency by region of the cell (cytosol, peripheral, focal adhesion). (In general: BRET reads energy transfer from a luciferase to a nearby fluorophore.)

For the substance “CFP-wtRac1 (wild type Rac1) (from UniProt P63000 1-192) (natural protein)”, the FRET efficiency (cytosol) worked out at 16 and the FRET efficiency (peripheral) worked out at 21.
